Reference: patent US9422239B1, “Dual PPAR-δ PPAR-γ agonists” (Auburn University, priority 2013, dated 2016)

Assay: Biodistribution by LC-Mass Spectral analysis
Details: mice, oral, 4 hours

Detection in the brain (crosses the blood brain barrier): not detected
SMILES: CN(CCOc1ccc(CC2SC(=O)NC2=O)cc1)c1ccccn1 (stereo not shown) [Rosiglitazone, rosiglitazone, reference compound]
